# Results as given in PubChem BioAssay AID485350 (ICCB-Longwood Screening Facility, Harvard Medical School, 2010).
# Only a part is listed here, and it is no random draw. The source made the active and inactive calls. No stated cut-off is given here; in the data, active means inhibition above about 25% (passing the limit was not always enough); inactive means the rest.
# Tested on: BasE (2,3-dihydroxybenzoate-AMP ligase), Acinetobacter baumannii ATCC 17978
# Assay: BasE siderophore enzyme inhibitors, primary screen, biochemical, Acinetobacter baumannii ATCC 17978, fluorescence polarization (AID 485350);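 further: 0% = negative plate control signal and 100% = positive plate control signal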
# Details: purified BasE, fluorescence polarization binding displacement; active compounds read high; concentration not given here
row,Compound,inhibition
1,CN(CCCl)CCCl,inactive: -1.68%
